Experiments:
[1] = Selectivity ratio of Ki for STAT1 to Ki for STAT5b-SH2 domain
[2] = Selectivity ratio of Ki for STAT3 to Ki for STAT5b-SH2 domain

Structure (SMILES)	Ratio Ki [1]	Ratio Ki [2]
Cc1ccc(S(=O)(=O)N(CC(=O)N(Cc2ccccc2)c2ccc(C(=O)O)c(O)c2)C(=O)OC(C)(C)C)cc1	2	2
CN(CC(=O)N(Cc1ccc(C2CCCCC2)cc1)c1ccc(C(=O)O)c(O)c1)S(=O)(=O)c1ccc(-c2ccccc2)cc1	2	2

Reference: ChEMBL document CHEMBL2021835 (J Med Chem, 2012)
